One assay addresses Histone deacetylase 2 (Homo sapiens, UniProt Q92769). Put plainly: Inhibition of HDAC2 (unknown origin) incubated at 37 degC for 30 mins.
The next assay deals with Histone deacetylase 3 (Homo sapiens, UniProt O15379). Put plainly: Inhibition of HDAC3 (unknown origin) incubated at 37 degC for 30 mins.

By UniProt entry, the sequences of proteins in these tests, tags left out. Where a name states a change or a piece, a line headed by the entry shows the natural chain unless it says otherwise.
UniProt Q92769, whole entry: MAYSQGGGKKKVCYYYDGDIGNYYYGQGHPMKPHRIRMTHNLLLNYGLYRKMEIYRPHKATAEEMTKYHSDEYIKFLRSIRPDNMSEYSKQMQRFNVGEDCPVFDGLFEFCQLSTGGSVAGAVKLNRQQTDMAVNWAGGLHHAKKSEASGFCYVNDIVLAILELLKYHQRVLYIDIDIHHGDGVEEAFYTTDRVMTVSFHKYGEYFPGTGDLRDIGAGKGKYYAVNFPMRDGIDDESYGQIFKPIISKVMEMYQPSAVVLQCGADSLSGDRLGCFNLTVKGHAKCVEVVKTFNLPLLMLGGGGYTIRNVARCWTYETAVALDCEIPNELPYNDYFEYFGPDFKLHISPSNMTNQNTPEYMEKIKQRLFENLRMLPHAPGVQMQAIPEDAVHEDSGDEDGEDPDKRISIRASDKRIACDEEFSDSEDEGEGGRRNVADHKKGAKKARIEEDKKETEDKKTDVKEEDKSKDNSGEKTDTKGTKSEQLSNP
UniProt O15379: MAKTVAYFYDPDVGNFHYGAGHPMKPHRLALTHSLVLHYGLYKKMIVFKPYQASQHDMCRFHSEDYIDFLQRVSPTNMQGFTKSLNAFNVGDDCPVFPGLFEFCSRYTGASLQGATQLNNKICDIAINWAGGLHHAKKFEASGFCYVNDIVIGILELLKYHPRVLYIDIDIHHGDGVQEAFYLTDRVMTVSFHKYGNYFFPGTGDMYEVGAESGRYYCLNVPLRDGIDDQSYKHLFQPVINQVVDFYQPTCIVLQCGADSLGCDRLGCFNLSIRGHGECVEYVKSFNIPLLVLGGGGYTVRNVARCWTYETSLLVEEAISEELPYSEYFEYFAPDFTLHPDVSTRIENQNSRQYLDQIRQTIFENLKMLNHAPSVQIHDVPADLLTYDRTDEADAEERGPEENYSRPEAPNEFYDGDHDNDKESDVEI

The structures appear in SMILES notation.

The term IC50 denotes the concentration needed to halve the response being measured. High values mean weaker potency, low ones greater potency. Regarding `CC(C)(C)OC(=O)n1cnc(C[C@@H]2NC(=O)[C@]3(C)CSC(=N3)c3csc(n3)CNC(=O)C[C@@H](/C=C/CCS)OC2=O)c1`, the IC50 on Histone deacetylase 2 and against Histone deacetylase 3 was 1.1 nM in each case.

The record behind these values is ChEMBL document CHEMBL3352389, “Evaluation of class I HDAC isoform selectivity of largazole analogues” (Bioorg Med Chem Lett, 2014).
